Test results taken from PubChem BioAssay AID623877 (Johns Hopkins Ion Channel Center, 2012).
The entries are a selection whose mix differs from that of the whole data set. The source made the active and inactive calls.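 Rule for the calls: active = fluorescence-ratio B-score plate-corrected deviation score at least 3 library SD below zero, with starting fluorescence score within 5 deviations; inactive = the rest.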

Amino acid sequences for entries named in this document (tags omitted).
UniProt Q8BHY3, whole entry: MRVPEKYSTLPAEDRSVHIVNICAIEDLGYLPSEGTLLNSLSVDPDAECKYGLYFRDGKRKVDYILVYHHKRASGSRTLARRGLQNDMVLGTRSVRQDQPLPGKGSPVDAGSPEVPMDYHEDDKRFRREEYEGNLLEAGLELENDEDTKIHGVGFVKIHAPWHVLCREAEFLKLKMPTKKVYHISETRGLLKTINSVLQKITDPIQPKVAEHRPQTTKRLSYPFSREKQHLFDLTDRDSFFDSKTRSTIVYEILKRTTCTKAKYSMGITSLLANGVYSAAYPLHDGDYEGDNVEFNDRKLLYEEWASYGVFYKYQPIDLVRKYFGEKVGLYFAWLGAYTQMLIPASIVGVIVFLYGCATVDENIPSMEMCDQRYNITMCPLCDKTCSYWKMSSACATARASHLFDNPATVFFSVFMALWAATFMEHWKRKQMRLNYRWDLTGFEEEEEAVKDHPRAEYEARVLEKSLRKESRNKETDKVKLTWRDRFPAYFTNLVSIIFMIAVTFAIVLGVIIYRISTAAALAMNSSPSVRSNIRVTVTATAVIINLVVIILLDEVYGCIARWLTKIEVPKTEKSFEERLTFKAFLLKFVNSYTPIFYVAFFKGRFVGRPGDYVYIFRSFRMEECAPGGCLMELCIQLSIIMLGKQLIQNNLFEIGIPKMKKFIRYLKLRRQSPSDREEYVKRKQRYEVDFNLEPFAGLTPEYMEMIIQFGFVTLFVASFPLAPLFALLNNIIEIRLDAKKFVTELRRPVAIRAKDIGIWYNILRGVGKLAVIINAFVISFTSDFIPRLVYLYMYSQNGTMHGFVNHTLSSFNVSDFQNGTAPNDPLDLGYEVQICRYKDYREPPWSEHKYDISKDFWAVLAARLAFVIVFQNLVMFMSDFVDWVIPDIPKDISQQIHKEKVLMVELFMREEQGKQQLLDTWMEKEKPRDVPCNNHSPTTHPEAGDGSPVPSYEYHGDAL

Each molecule was assayed against Anoctamin-1 (Mus musculus) (UniProt Q8BHY3) (assay: TMEM16A chloride channel activators or potentiators, primary screen, cell-based, HTS (AID 623877)). Details: HEK293 TMEM16A/YFP-H148Q/I152L, iodide quench fluorescence; at 10 µM.

Row | SMILES | outcome
1 | Cc1cc(N(CCCl)CCCl)ccc1C=O | inactive
2 | CCCN1CCC(Nc2cc(OC)cc(OC)c2)CC1 | inactive
3 | c1ccc(CN2CCC(Nc3ccccc3)CC2)cc1 | inactive
4 | CN(C)C1(CNC(=O)c2cccc(C#N)c2)CCCCC1 | inactive
5 | CC(C)(C)OC(=O)N1CCC(N(C(=O)c2ccccc2)c2ccc(Cl)cc2)CC1 | inactive
6 | N#Cc1ccc(C(=O)NCC2(N3CCCCC3)CCCCC2)cc1 | inactive
7 | N/C(=N\O)c1c(N)no[n+]1[O-] | inactive
8 | CCOC(=O)N1CCC(Nc2ccc(C)cc2)CC1 | inactive
9 | O=C(OC1CN2CCC1CC2)C1c2ccccc2C=Cc2ccccc21 (stereo not drawn) | inactive
10 | O=C(NCC1(N2CCOCC2)CCCCC1)c1cc(Br)ccc1Cl | inactive
11 | COc1cc(C(=O)NCC2(N3CCOCC3)CCCCC2)cc(OC)c1C | inactive
12 | COc1ccc(C(=O)NCC2(N3CCOCC3)CCCCC2)cc1OC | inactive
13 | CCC(CO)(C(=O)OC1CN2CCC1CC2)c1ccccc1 (stereo not drawn) | inactive
14 | COc1cccc(C(=O)N(c2cc(C)cc(C)c2)C2CCN(C(=O)OC(C)(C)C)CC2)c1 | inactive
15 | COc1cc(OC)cc(C(=O)NCC2(N3CCOCC3)CCCCC2)c1 | inactive
16 | CN1CCC(Nc2ccc(Cl)cc2)CC1 | inactive
17 | CN1CCC(Nc2ccc(F)c(Cl)c2)CC1 | inactive
18 | CCOc1ncccc1C(=O)NCC1(N2CCOCC2)CCCCC1 | inactive
19 | CCCOc1ccc(C(=O)NCC2(N(C)C)CCCCC2)cc1 | inactive
20 | O=C(O)C1(Nc2ccccc2)CCN(Cc2ccccc2)CC1 | inactive
21 | CC(C)(C)OC(=O)N1CCC(Nc2ccccc2)CC1 | inactive
22 | CCN1CCC(Nc2cccc(F)c2)CC1 | inactive
23 | Cc1ccccc1NC1(C#N)CCN(Cc2ccccc2)CC1 | inactive
24 | Cn1c(=O)[nH]cc(N(CCCl)CCCl)c1=O | inactive
25 | CN(C)c1ccc(C(=O)NCC2(N3CCCCC3)CCCCC2)cc1 | inactive

Row | SMILES | outcome
26 | O=C(NCC1(N2CCCCC2)CCCCC1)c1ccco1 | inactive
27 | COc1cc(OC)cc(C(=O)NCC2(N3CCCCC3)CCCCC2)c1 | inactive
28 | CC(=O)N(c1ccccc1)C1CCNCC1 | inactive
29 | Cc1ccc(NC2(C#N)CCN(Cc3ccccc3)CC2)cc1 | inactive
30 | Fc1ccccc1NC1CCN(Cc2ccccc2)CC1 | inactive
31 | Cc1ccc(C(=O)NCC2(N3CCCCC3)CCCCC2)o1 | inactive
32 | CCOC(=O)N1CCC(Nc2cccc(C)c2)CC1 | inactive
33 | CCOc1ccc(C)cc1CN(CCCl)CCCl | inactive
34 | O=C1CCN(Cc2ccccc2)CC1 | inactive
35 | CCOC(=O)N1CCC(Nc2ccc(F)cc2)CC1 | inactive
36 | COc1ccc(NC2CCN(CCc3ccccc3)CC2)c(OC)c1 | inactive
37 | O=C(NCC1(N2CCCCC2)CCCCC1)c1ccc(F)cc1 | inactive
38 | CCCCOc1ccc(C(=O)NCC2(N3CCOCC3)CCCCC2)cc1 | inactive
39 | O=P1(N(CCCl)CCCl)SCCCS1 | inactive
40 | O=C(NCC1(N2CCOCC2)CCCCC1)c1cc2ccccc2o1 | inactive
41 | Cc1cc(C)cc(N(C(=O)c2ccccc2)C2CCN(C(=O)OC(C)(C)C)CC2)c1 | inactive
42 | O=C(NCC1(N2CCCCC2)CCCCC1)c1ccc(Cl)nc1 | inactive
43 | CCOC(=O)N1CCC(Nc2ccc(OC)cc2)CC1 | inactive
44 | COc1ccc(Cl)cc1C(=O)NCC1(N2CCOCC2)CCCCC1 | inactive
45 | O=C(OC1CN2CCC1CC2)C1c2ccccc2Oc2ccccc21 (stereo not drawn) | inactive
46 | O=C(NCC1(N2CCCCC2)CCCCC1)c1ccc(Cl)s1 | inactive
47 | N#CC1(Nc2ccccc2)CCN(Cc2ccccc2)CC1 | inactive
48 | O=C(NCC1(N2CCCCC2)CCCCC1)c1cccs1 | inactive
49 | O=C(NCC1(N2CCCCC2)CCCCC1)c1ccc(=O)[nH]c1 | inactive
50 | CC(C)(C)OC(=O)N1CCC(N(C(=O)c2ccccc2)c2ccc(F)cc2)CC1 | inactive

Row | SMILES | outcome
51 | COc1ccc(C(=O)NCC2(N3CCCCC3)CCCCC2)c(OC)c1OC | inactive
52 | COc1ccc(C(=O)NCC2(N3CCCCC3)CCCCC2)cc1 | inactive
53 | Cc1cccc(NC2(C#N)CCN(Cc3ccccc3)CC2)c1 | inactive
54 | CSc1ccccc1C(=O)NCC1(N2CCCCC2)CCCCC1 | inactive
55 | O=C(NCC1(N2CCCCC2)CCCCC1)c1cncc(Br)c1 | inactive
56 | CN1CCC(Nc2cccc(F)c2)CC1 | inactive
57 | CCCOc1ccc(C(=O)NCC2(N(C)C)CCCCC2)cc1OC | inactive
58 | CN(C)c1cccc(C(=O)NCC2(N3CCCCC3)CCCCC2)c1 | inactive
59 | COc1ccc(CN(CCCl)CCCl)cc1Cl | inactive
60 | CC(C)c1ccc(NC2CCN(C(=O)OC(C)(C)C)CC2)cc1 | inactive
61 | O=C(NCC1(N2CCOCC2)CCCCC1)c1cc(F)c(F)cc1Cl | inactive
62 | COc1cc(OC)c(C(=O)NCC2(N(C)C)CCCCC2)cc1OC | inactive
63 | O=C(NCC1(N2CCCCC2)CCCCC1)c1cccc(C(F)(F)F)c1 | inactive
64 | CC(C)c1ccc(C(=O)NCC2(N3CCOCC3)CCCCC2)cc1 | inactive
65 | COc1ccc(NC2CCN(C(=O)OC(C)(C)C)CC2)cc1 | inactive
66 | CN1CCN(CCOC(=O)C(O)(c2ccccc2)c2ccccc2)CC1 | inactive
67 | O=C(NCC1(N2CCOCC2)CCCCC1)c1cc(=O)[nH]c2ccccc12 | inactive
68 | COc1cc(C(=O)NCC2(N3CCCCC3)CCCCC2)ccc1OC(F)F | inactive
69 | O=C(NCC1(N2CCCCC2)CCCCC1)c1ccc(OC(F)F)cc1 | inactive
70 | O=C(NCC1(N2CCCCC2)CCCCC1)c1cccc([N+](=O)[O-])c1 | inactive
71 | CSc1ccc(C(=O)NCC2(N3CCOCC3)CCCCC2)cc1 | inactive
72 | N#CC1(Nc2ccccc2)CCN(CCc2ccccc2)CC1 | inactive
73 | CCN1CCC(Nc2ccc(Cl)cc2)CC1 | inactive
